Molecules are shown by their SMILES.

The target of the experiment is T1, human EAAT3 (Homo sapiens, UniProt P43005).
T1 construct: expressed in transfected cells
T1 sequence (P43005 1-524): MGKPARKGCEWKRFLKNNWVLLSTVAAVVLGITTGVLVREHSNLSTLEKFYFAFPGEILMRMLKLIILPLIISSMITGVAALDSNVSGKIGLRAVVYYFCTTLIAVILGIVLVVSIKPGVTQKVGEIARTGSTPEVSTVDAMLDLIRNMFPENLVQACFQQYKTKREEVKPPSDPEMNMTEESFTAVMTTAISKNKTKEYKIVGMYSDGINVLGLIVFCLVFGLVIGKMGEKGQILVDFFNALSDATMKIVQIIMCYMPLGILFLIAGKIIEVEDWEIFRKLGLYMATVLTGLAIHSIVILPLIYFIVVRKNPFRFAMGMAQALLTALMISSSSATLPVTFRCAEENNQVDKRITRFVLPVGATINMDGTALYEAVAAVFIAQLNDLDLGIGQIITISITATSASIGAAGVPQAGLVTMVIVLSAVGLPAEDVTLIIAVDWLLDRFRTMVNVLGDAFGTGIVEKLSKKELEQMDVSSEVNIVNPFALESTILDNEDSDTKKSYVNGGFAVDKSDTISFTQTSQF
Description: Inhibition of [14C]-glutamic acid uptake by EAAT3 expressed in MDCK or COS-1 cells. The class given is cell-based. On the procedure: In accordance with a known method (Shimamoto, K. et al., Mol. Pharmacol. 53, 195-201, 1998; Bioorg. Med. Chem. Lett. 10, 2407-2410, 2000), the inhibitory activity was assayed as the ability to inhibit the uptake of [^14C]-glutamic acid by human EAAT2 and EAAT3 stably expressed in MDCK (Madin-Darby canine kidney) cells or transiently expressed in COS-1 cells. The glutamate uptake activity was assayed by incubating a mixture of 1 μM of L-[^14C]-glutamic acid with a sample compound at a predetermined concentration for 12 minutes, lysing the cells and then measuring the radioactivity incorporated into the cells with a liquid scintillator. The amount of uptake was expressed in percentage by referring the amount of uptake in the absence of a test compound (i.e., the buffer alone) as 100% and referring the amount of uptake in a sodium-free solution as 0%.

The term IC50 denotes the concentration at which inhibition is half-maximal. Take `CCc1ccc(C(=O)Nc2cccc(CO[C@H](C(=O)O)[C@H](N)C(=O)O)c2)cc1` [Et-BzA-TBOA, (2S,3S)-3-[3-(4-ethylbenzoylamino)benzyloxy]aspartate]: the IC50 (1 μM L-[14C]-glutamic acid, 12 minutes) came out at 88 ± 4.8 nM. Besides, the “Inhibition of EAAT3, potency compared with I-BzA-TBOA” value (in words) is “almost the same potency as I-BzA-TBOA”.
